Molecules are shown by their SMILES. Values joined by “and” are separate entries in the source; they are usually repeats but may differ in a detail not shown here. Equal values may be shown once.

This test has as its system IL-2 secretion from the hybridoma cell line T-Hyb 1. Conditions: for Immunsupressive assays Thyb1 (Max) % Inhibition: Thyb1, maximal inhibition; for IC50: read-out: Immunsupressive assays Thyb1 (IC50), Thyb1; for immunosuppressive properties as measured by IL-2 secretion, versus Arg equivalent: dose-response curve, compared to the Arg-containing peptide.

The term IC50 denotes the concentration that gives 50% inhibition. For the compound `CCCC[C@H](NC(=O)C1c2ccccc2CN1C(=O)[C@@H](NC(=O)[C@H](CC1CCCCC1)NC(C)=O)C1CCN(C(=N)N)CC1)C(=O)N(C)Cc1ccccc1` (single isomer, unassigned) [Compound P76-1, Ac-Cha-Gpg-Disc-Nle-N(Me)Bn], the “Immunsupressive assays Thyb1 (Max) % Inhibition” value is on record as 106% and the IC50 worked out at 64 µM.
Consider `CSCC[C@H](NC(=O)[C@@H]1Cc2ccccc2CN1C(=O)[C@H](CCCNC(=N)N)NC(=O)[C@H](CC1CCCCC1)NC(C)=O)C(N)=O` [Compound P1, Ac-Cha-Arg-Tic-Met-NH2], for which the IC50 is above 200 µM.
Take `CSCC[C@H](NC(=O)[C@@H]1Cc2ccccc2CN1C(=O)[C@H](CCCNC(=N)N)NC(=O)[C@H](CC1CCCCC1)NC(C)=O)C(=O)N1CC[C@H](c2ccccc2)[C@H]1C(N)=O` [Compound P31, Ac-Cha-Arg-Tic-Met-βPhPro-NH2]: the “Immunsupressive assays Thyb1 (Max) % Inhibition” value is 64% and the IC50 worked out at 55 µM.
On the same counts, the results for `CSCC[C@H](NC(=O)C1c2ccccc2CN1C(=O)[C@H](CCCNC(=N)N)NC(=O)[C@H](CC1CCCCC1)NC(C)=O)C(=O)N1CC[C@H](c2ccccc2)[C@H]1C(=O)N[C@@H](CO)c1nc(C(=O)N(C)C)c(C(C)C)o1` (stereo partly drawn) [Compound P40-1, Ac-Cha-Arg-Disc-Met-βPhPro-[S(oxaz)L]NMe2] are 81% and 59 µM.
`CSCC[C@H](NC(=O)C1c2ccccc2CN1C(=O)[C@@H](NC(=O)[C@H](CC1CCCCC1)NC(C)=O)C1CCN(C(=N)N)CC1)C(=O)N1CC[C@H](c2ccccc2)[C@H]1C(=O)N[C@@H](CO)c1nc(C(=O)N(C)C)c(C(C)C)o1` (stereo partly drawn) [Compound P41-1, Ac-Cha-Gpg-Disc-Met-βPhPro-[S(oxaz)L]-NMe2]: the “Immunsupressive assays Thyb1 (Max) % Inhibition” value turned out to be 83%; the “immunosuppressive properties as measured by IL-2 secretion, versus Arg equivalent” value is “improved immunosuppressive properties”; the IC50 stood at 47 µM.
Regarding `CC(=O)N[C@@H](CC1CCCCC1)C(=O)N[C@@H](CCCNC(=N)N)C(=O)N1Cc2ccccc2C[C@H]1C(=O)N[C@@H](CC[S+](C)[O-])C(=O)N1CC[C@H](c2ccccc2)[C@H]1C(=O)N[C@@H](CO)c1nc(C(=O)N(C)C)c(C(C)C)o1` (stereo partly drawn) [Compound P43, Ac-Cha-Arg-Tic-Met(O)-βPhPro-[S(oxaz)L]-NMe2], the “Immunsupressive assays Thyb1 (Max) % Inhibition” value is recorded as 84% and the IC50 came out at 54 µM.
Turning to `CC(=O)N[C@@H](CC1CCCCC1)C(=O)N[C@H](C(=O)N1Cc2ccccc2C[C@H]1C(=O)N[C@@H](CC[S+](C)[O-])C(=O)N1CC[C@H](c2ccccc2)[C@H]1C(=O)N[C@@H](CO)c1nc(C(=O)N(C)C)c(C(C)C)o1)C1CCN(C(=N)N)CC1` (stereo partly drawn) [Compound P47, Ac-Cha-Gpg-Tic-Met(O)-βPhPro-[S(oxaz)L]-NMe2], the “Immunsupressive assays Thyb1 (Max) % Inhibition” value came out at 83% and the IC50 worked out at 62 µM.
On the same counts, the results for `CCCC[C@H](NC(=O)[C@@H]1Cc2ccccc2CN1C(=O)[C@H](CCCNC(=N)N)NC(=O)[C@H](CC1CCCCC1)NC(C)=O)C(=O)N1CC[C@H](c2ccccc2)[C@H]1C(=O)N[C@@H](CO)c1nc(C(=O)N(C)C)c(C(C)C)o1` [Compound P51, Ac-Cha-Arg-Tic-Nle-βPhPro-[S(oxaz)L]-NMe2] are 88% and 62 µM.
`CCCC[C@H](NC(=O)[C@@H]1Cc2ccccc2CN1C(=O)[C@@H](NC(=O)[C@H](CC1CCCCC1)NC(C)=O)C1CCN(C(=N)N)CC1)C(=O)N1CC[C@H](c2ccccc2)[C@H]1C(=O)N[C@@H](CO)c1nc(C(=O)N(C)C)c(C(C)C)o1` [Compound P53, Ac-Cha-Gpg-Tic-Nle-βPhPro-[S(oxaz)L]-NMe2]: the “Immunsupressive assays Thyb1 (Max) % Inhibition” value was 99% and the IC50 came to 25 µM. Also, where the note is “T-Hyb 1 cells, FIG. 13 compared to a DMSO control”, the “immunosuppressive / immunomodulatory properties as measured by IL-2 secretion” value is listed as “immunosuppressive properties”.
As for `CSCC[C@H](NC(=O)[C@@H]1Cc2ccccc2CN1C(=O)[C@@H](NC(=O)[C@H](CC1CCCCC1)NC(C)=O)C1CCN(C(=N)N)CC1)C(=O)N1CC[C@H](c2ccccc2)[C@H]1C(=O)N[C@@H](CO)c1nc(C(=O)N(C)C)c(C(C)C)o1` [Compound P60, Ac-Cha-Gpg-Tic-Met-βPhPro-[S(oxaz)L]-NMe2], the “Immunsupressive assays Thyb1 (Max) % Inhibition” value came to 47% and the IC50 was found to be 30 µM.
Regarding `CSCC[C@H](NC(=O)C1c2ccccc2CN1C(=O)[C@@H](NC(=O)[C@H](CC1CCCCC1)NC(C)=O)C1CCN(C(=N)N)CC1)C(N)=O` (stereo partly drawn) [Compound P66-1, Ac-Cha-Gpg-Disc-Met-NH2], the “Immunsupressive assays Thyb1 (Max) % Inhibition” value was 24% and the IC50 is 100 µM.
With `CSCC[C@H](NC(=O)[C@@H]1Cc2ccccc2CN1C(=O)[C@@H](NC(=O)[C@H](CC1CCCCC1)NC(C)=O)C1CCN(C(=N)N)CC1)C(N)=O` [Compound P67, Ac-Cha-Gpg-Tic-Met-NH2], the “Immunsupressive assays Thyb1 (Max) % Inhibition” value is 33% and the IC50 came out at 115 µM.
As for `CCCC[C@H](NC(=O)[C@@H]1Cc2ccccc2CN1C(=O)[C@@H](NC(=O)[C@H](CC1CCCCC1)NC(C)=O)C1CCN(C(=N)N)CC1)C(=O)NCc1ccccc1` [Compound P68, Ac-Cha-Gpg-Tic-Nle-N(H)Bn], the “Immunsupressive assays Thyb1 (Max) % Inhibition” value is recorded as 106% and the half-maximal inhibitory concentration (IC50) is 39 µM.
Take `CCCC[C@H](NC(=O)[C@@H]1Cc2ccccc2CN1C(=O)[C@@H](NC(=O)[C@H](CC1CCCCC1)NC(C)=O)C1CCN(C(=N)N)CC1)C(=O)NCCc1ccccc1` [Compound P69, Ac-Cha-Gpg-Tic-Nle-N(H)CH2CH2Ph]: the “Immunsupressive assays Thyb1 (Max) % Inhibition” value is recorded as 96%; the “immunosuppressive properties as measured by IL-2 secretion, versus Arg equivalent” value was “improved immunosuppressive properties”; the IC50 came to 42 µM.
Take `CCCC[C@H](NC(=O)[C@@H]1Cc2ccccc2CN1C(=O)[C@@H](NC(=O)[C@H](CC1CCCCC1)NC(C)=O)C1CCN(C(=N)N)CC1)C(=O)NCCOCCO` [Compound P70, Ac-Cha-Gpg-Tic-Nle-N(H)CH2CH2OCH2CH2OH]: the “Immunsupressive assays Thyb1 (Max) % Inhibition” value is 41% and the IC50 is 83 µM.
Regarding `CCCC[C@H](NC(=O)C1c2ccccc2CN1C(=O)[C@H](CCCNC(=N)N)NC(=O)[C@H](CC1CCCCC1)NC(C)=O)C(=O)N(C)Cc1ccccc1` (stereo partly drawn) [Compound P72-1, Ac-Cha-Arg-Disc-Nle-N(Me)Bn], the “Immunsupressive assays Thyb1 (Max) % Inhibition” value stood at 105% and the IC50 stood at 88 µM.
Consider `CCCC[C@H](NC(=O)[C@@H]1Cc2ccccc2CN1C(=O)[C@@H](NC(=O)[C@H](CC1CCCCC1)NC(C)=O)C1CCN(C(=N)N)CC1)C(=O)N(C)Cc1ccccc1` [Compound P74, Ac-Cha-Gpg-Tic-Nle-N(Me)Bn], for which the “Immunsupressive assays Thyb1 (Max) % Inhibition” value was 103% and the IC50 was determined as 47 µM.
Turning to `CCCC[C@H](NC(=O)[C@@H]1Cc2ccccc2CN1C(=O)[C@@H](NC(=O)[C@H](CC1CCCCC1)NC(C)=O)C1CCN(C(=N)N)CC1)C(=O)N1CCc2ccccc2C1` [Compound P77, Ac-Cha-Gpg-Tic-Nle-tetrahydroisoquinoline], the “Immunsupressive assays Thyb1 (Max) % Inhibition” value is on record as 42% and the IC50 came to 73 µM.
As for `CCCC[C@H](NC(=O)[C@@H]1Cc2ccccc2CN1C(=O)[C@@H](NC(=O)[C@H](CC1CCCCC1)NC(C)=O)C1CCN(C(=N)N)CC1)C(=O)N(CCO)Cc1ccccc1` [Compound P78, Ac-Cha-Gpg-Tic-Nle-N(Bn)CH2CH2OH], the “Immunsupressive assays Thyb1 (Max) % Inhibition” value came to 50% and the IC50 was 118 µM.
`CSCC[C@H](NC(=O)[C@@H]1Cc2ccccc2CN1C(=O)[C@@H](NC(=O)[C@H](CC1CCCCC1)NC(C)=O)C1CCN(C(=N)N)CC1)C(=O)N1CC[C@H](c2ccccc2)[C@H]1C(N)=O` [Compound P80, Ac-Cha-Gpg-Tic-Met-βPhProNH2]: the “Immunsupressive assays Thyb1 (Max) % Inhibition” value came out at 100% and the IC50 stood at 13 µM.
For the compound `CCCC[C@H](NC(=O)[C@@H]1Cc2ccccc2CN1C(=O)[C@H](CCCNC(=N)N)NC(=O)[C@H](CC1CCCCC1)NC(C)=O)C(=O)N(CCO)CCc1ccccc1` [Compound P81, Ac-Cha-Arg-Tic-Nle-N(CH2CH2OH)CH2CH2Ph], the “Immunsupressive assays Thyb1 (Max) % Inhibition” value worked out at 96% and the IC50 amounted to 39 µM.
On the same counts, the results for `CCCC[C@H](NC(=O)[C@@H]1Cc2ccccc2CN1C(=O)[C@H](CCCNC(=N)N)NC(=O)[C@H](CC1CCCCC1)NC(C)=O)C(=O)NCCc1ccccc1` [Compound P82, Ac-Cha-Arg-Tic-Nle-N(H)CH2CH2Ph] are 100% and 78 µM.
For the compound `CCCC[C@H](NC(=O)[C@@H]1Cc2ccccc2CN1C(=O)[C@H](CCCNC(=N)N)NC(=O)[C@H](CC1CCCCC1)NC(C)=O)C(=O)N(C)CCc1ccccc1` [Compound P83, Ac-Cha-Arg-Tic-Nle-N(Me)CH2CH2Ph], the “Immunsupressive assays Thyb1 (Max) % Inhibition” value was found to be 100% and the IC50 came out at 46 µM.
As for `CSCC[C@H](NC(=O)[C@@H]1Cc2ccccc2CN1C(=O)[C@H](CCCNC(=N)N)NC(=O)[C@H](CC1CCCCC1)NC(C)=O)C(=O)N(CCO)CCc1ccccc1` [Compound P85, Ac-Cha-Arg-Tic-Met-N(CH2CH2OH)CH2CH2Ph], the “Immunsupressive assays Thyb1 (Max) % Inhibition” value amounted to 74% and the IC50 is 100 µM.
Regarding `CCCC[C@H](NC(=O)[C@@H]1Cc2ccccc2CN1C(=O)[C@H](CCCNC(=N)N)NC(=O)[C@H](CC1CCCCC1)NC(C)=O)C(=O)N(CCOCCO)Cc1ccccc1` [Compound P98, Ac-Cha-Arg-Tic-Nle-N(Bn)CH2CH2OCH2CH2OH], the “Immunsupressive assays Thyb1 (Max) % Inhibition” value was 66% and 86%; the IC50 is 79 µM.
With `CCCC[C@H](NC(=O)[C@@H]1Cc2ccccc2CN1C(=O)[C@@H](NC(=O)[C@H](CC1CCCCC1)NC(C)=O)C1CCN(C(=N)N)CC1)C(=O)N(CCOCCO)Cc1ccccc1` [Compound P101, Ac-Cha-Gpg-Tic-Nle-N(Bn)CH2CH2OCH2CH2OH], the “Immunsupressive assays Thyb1 (Max) % Inhibition” value was 88% and the IC50 was determined as 57 µM.
Turning to `CSCC[C@H](NC(=O)[C@@H]1Cc2ccccc2CN1C(=O)[C@@H](NC(=O)[C@H](CC1CCCCC1)NC(C)=O)C1CCN(C(=N)N)CC1)C(=O)N(CCOCCO)Cc1ccccc1` [Compound P102, Ac-Cha-Gpg-Tic-Met-N(Bn)CH2CH2OCH2CH2OH], the “Immunsupressive assays Thyb1 (Max) % Inhibition” value is listed as 76% and the concentration for half-maximal inhibition (IC50) came to 81 µM.

Source of the values: patent publication US7629318B2, “Immunosuppressant compounds, methods and uses related thereto” (priority 2002, dated 2009).
